Drawing on PubChem BioAssay AID622 (Vanderbilt High Throughput Screening Facility, 2007), this text covers fluorescence slope for one compound.

By UniProt entry, the sequences of proteins in these tests, tags left out.
UniProt P62483, whole entry: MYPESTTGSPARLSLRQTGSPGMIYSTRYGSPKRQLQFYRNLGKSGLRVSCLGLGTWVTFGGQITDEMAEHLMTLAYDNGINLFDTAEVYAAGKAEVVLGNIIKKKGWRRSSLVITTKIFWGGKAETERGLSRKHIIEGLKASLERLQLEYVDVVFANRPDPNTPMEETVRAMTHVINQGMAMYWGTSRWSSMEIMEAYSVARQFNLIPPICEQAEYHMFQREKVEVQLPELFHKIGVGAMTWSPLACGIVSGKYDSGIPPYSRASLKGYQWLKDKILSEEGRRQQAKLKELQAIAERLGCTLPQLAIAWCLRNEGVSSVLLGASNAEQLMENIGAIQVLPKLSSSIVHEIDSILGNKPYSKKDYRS

The list shows a part of the results, in another mix than the full data. Some of these compounds have results that are not shown, active ones among them. Active and inactive are the calls of the source.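 How the source made its calls: active means fluorescence slope higher than the sample average by over 3 SD (cut at about -0.22 in these data, passing the limit was not always enough); inactive means the rest.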

The target in this experiment is Voltage-gated potassium channel subunit beta-2 (Rattus norvegicus) (UniProt P62483). The experiment in a line: inhibitors of rat Kvbeta2 reductase activity – biochemical, NADPH fluorescence, primary screen (AID 622).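 Further: slope of raw intensity against log time taken from 70 to 1610 s.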 The settings on record: recombinant KvBeta, 4-cyanobenzaldehyde reduction, at 10 µM, stronger effect = higher value.
Turning to `O=C(OC1CN2CCC1CC2)C(CO)(c1ccccc1)c1ccccc1` (stereo unspecified), the fluorescence slope was inactive: -0.511.
